Laboratory results from US9539256B2 (THE BOARD OF REGENTS OF THE UNIVERSITY OF TEXAS SYSTEM, priority 2012, dated 2017).

Target: T1, EPAC2 (Mus musculus, UniProt Q9EQZ6)
T1 sequence (Q9EQZ6 1-1011): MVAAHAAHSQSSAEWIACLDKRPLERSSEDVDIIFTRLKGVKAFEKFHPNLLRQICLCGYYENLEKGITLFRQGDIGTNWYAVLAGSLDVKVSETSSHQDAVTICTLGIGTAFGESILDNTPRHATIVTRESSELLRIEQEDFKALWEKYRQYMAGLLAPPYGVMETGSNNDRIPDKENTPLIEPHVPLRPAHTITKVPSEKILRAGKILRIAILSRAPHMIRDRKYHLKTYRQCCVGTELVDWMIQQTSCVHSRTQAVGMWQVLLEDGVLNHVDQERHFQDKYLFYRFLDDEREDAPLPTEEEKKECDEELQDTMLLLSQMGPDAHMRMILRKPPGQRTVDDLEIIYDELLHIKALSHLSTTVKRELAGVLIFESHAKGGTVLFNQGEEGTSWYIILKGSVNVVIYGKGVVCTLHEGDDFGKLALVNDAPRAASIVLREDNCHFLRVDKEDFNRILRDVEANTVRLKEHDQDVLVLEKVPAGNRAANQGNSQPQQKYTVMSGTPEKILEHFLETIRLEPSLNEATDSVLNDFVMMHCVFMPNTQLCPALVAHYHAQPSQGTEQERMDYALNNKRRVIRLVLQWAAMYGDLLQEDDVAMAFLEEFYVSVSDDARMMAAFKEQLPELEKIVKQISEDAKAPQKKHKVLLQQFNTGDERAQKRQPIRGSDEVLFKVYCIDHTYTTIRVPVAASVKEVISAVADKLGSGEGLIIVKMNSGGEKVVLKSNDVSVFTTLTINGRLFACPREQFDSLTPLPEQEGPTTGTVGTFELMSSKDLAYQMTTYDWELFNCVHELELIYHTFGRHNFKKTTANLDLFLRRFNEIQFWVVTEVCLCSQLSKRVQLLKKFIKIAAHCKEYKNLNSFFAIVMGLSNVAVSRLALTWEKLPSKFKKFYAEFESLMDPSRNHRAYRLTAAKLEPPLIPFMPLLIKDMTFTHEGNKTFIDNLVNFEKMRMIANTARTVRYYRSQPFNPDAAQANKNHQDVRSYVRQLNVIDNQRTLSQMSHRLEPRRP
Assay: 8-NBD-cAMP competition binding to EPAC2
Conditions: competing with 8-NBD-cAMP in binding EPAC2; read-out: Apparent IC50

## Cc1ccc(S(=O)(=O)c2c(C)cc(C)cc2C)cc1 [ESI-05]
  IC50: 480 ± 30 nM
